Values quoted from earlier work, collected in US11198711B2 (priority 2013, dated 2021).

System: Heliothis sp.
Settings: native Hv1a, literature value; cited from earlier work

Substance: ω-ACTX-Hv1a
- LD50: 12 µg/g
